Patent publication US11959104B2, “Methods of differentiating stem cell-derived ectodermal lineage precursors” (MEMORIAL SLOAN-KETTERING CANCER CENTER, priority 2016, dated 2024)

Key:
Format in all cases: cell-based, human
pituitary-lineage cells [1] = assay: Dorsal-ventral patterning of pituitary cells, single cell qRT-PCR
Method: (§1) For standard (unless mentioned otherwise in the text) pituitary maturation, medium on day 30 was changed to “E6 only” for additional 30 days. For patterning experiments (indicated in the text) E6 medium was supplemented with either high concentrations of FGF8 (100 ng/ml, dorsalize), high concentrations of BMP2 (20 ng/ml, ventralize) or intermediate concentrations of both (FGF8 50 ng/ml, BMP2 10 ng/ml).
For single cell PCR analysis cells were detached using Accutase. After filtering through a 40 μm cell strainer DAPI negative cells were sorted on a BDFACS Aria III machine, essentially cleaning up the cell preparation of debris and dead cells. Sorted cell suspension was adjusted to a concentration of 400 000 cells/ml. Single cells were captured using the Fluidigm C1 system according to the manufactures manual. Capture rate of for each C1 chip was confirmed microscopically using a standard tissue culture bright flied microscope. Capture rates were as follows: day 30: 91% (87/96) day 60: 94% (90/96) day 60 FGF8: 93% (89/96) day 60 FGF8/BMP2: 89% (85/96) day 60 BMP2: 93% (89/96). Cells were lysed, RNA was extracted and transcribed into cDNA using the C1 in combination with wet-lab tested Fluidigm DELTAgene assays (FIG. 27) following the manufactures protocol. Wet-lab tested DELTAgene assays were purchased directly from Fluidigm. The resulting cDNA was diluted 1:5 and subjected to Single cell PCR amplification using the Fluidigm BioMark system in combination with EvaGreen chemistry according to the manufactures manual (“Fast Gene Expression Analysis Using EvaGreen on the BioMark or BioMark HD System”). PCR was run using a Fluidigm 96.96 Dynamic Array. Each primer pair was run in technical duplicates on the chip. […] Expression data was analyzed using the Fluidigm Real-Time PCR analysis software in combination with the Fluidigm SINGuLAR Analysis Toolset for R (Version 3.0.2 (2013-09-25) “Frisbee Sailing”).

pituitary-lineage cells [2] = assay: Dorsal-ventral patterning of pituitary cells, bulk qRT-PCR; details: day 60, patterned for 30 days
Method: as §1
Total RNA was extracted from at least 3 independent experiments using the TRIzol (Fisher Scientific) reagent in combination with Phase-lock tubes (5Prime) according to the manufactures protocol. 1 μg of total RNA was reverse transcribed into cDNA using iScript (BioRad). For quantitative RT PCR we used the SSoFast EvaGreen Mix (BioRad) in combination with QuantiTect primer assays (Qiagen) on a BioRad CFX96 Thermal Cycler. All reactions were run according to the manufacturer's protocol. Results are calculated using the ΔΔCt method (Livak and Schmittgen, 2001).

pituitary-lineage cells [3] = assay: Dorsal-ventral patterning of pituitary cells, immunofluorescence quantification; details: day 60
Method: as §1
After washing the cells once with PBS, cells were fixed with 4% (v/v) paraformaldehyde for 20 min, washed twice with PBS, permeabilized using 0.1% (v/v) Triton X-100 in PBS, Cells were blocked with 10% (v/v) FCS in PBS for 1-5 h at room temperature. Cells were incubated with primary antibodies diluted in 2% FCS (v/v) in PBS at 4° C. overnight. A list of the primary antibodies used in this study is provided as FIG. 28. After primary antibody incubation cells were washed twice with PBS followed by incubation with appropriate AlexaFluor-conjugated secondary antibodies diluted in PBS at room temperature for 1 h (1:1000; Molecular Fisher Scientific). After washing twice with PBS nuclei were stained using DAPI. After and additional 2 washing steps, fluorescence images of the cells were taken using an Olympus IX71 inverted microscope equipped with a Hamamatsu ORCA CCD camera.

B1: BMP2: activator of BMP signaling, ventralizing agent (protein, UniProt P12643 283-396, looked up)
Bone morphogenetic protein 2: QAKHKQRKRLKSSCKRHPLYVDFSDVGWNDWIVAPPGYHAFYCHGECPFPLADHLNSTNHAIVQTLVNSVNSKIPKACCVPTELSAISMLYLDENEKVVLKNYQDMVVEGCGCR
pituitary-lineage cells [1]; day 60, high concentration of factor
  cells expressing POMC: 40%
pituitary-lineage cells [1]; day 60, high concentrations
  number of ACTH+ dorsal cell types: decreased the number of ACTH+ dorsal cell types
  number of ventral cell types expressing FSHB and LHB: increased the number of ventral cell types expressing FSHB and LHB
pituitary-lineage cells [2]
  FSHB and LHB gene expression: significantly upregulated
pituitary-lineage cells [3]
  hormone expressing cells by immunocytochemistry: FSH was the most abundant cell type
